A short description of the experiment: Selectivity ratio of Ki for PI3Kalpha to Ki for mTOR.

In the case of `CCNC(=O)Nc1ccc(-c2nc3c(c(N4CCOCC4)n2)CCN(c2ncccn2)C3)cc1`, the Ratio Ki came to 60.

(Values after ChEMBL document CHEMBL2176927, “Potent, selective, and orally bioavailable inhibitors of the mammalian target of rapamycin kinase domain exhibiting single agent antiproliferative activity” (J Med Chem, 2012).)
